pIC50: −log10 of the molar value.

This assay addresses thrombin (Bos taurus, UniProt P00735). Description: biochemical. The arrangement: species or system Bovine.
Consider `CC[C@H](C)[C@H](NC(=O)[C@@H]1CCCN1C(=O)[C@H](CCC(=O)O)NC(=O)[C@H](Cc1ccc(O)cc1)NC(=O)CCC(=O)O)C(=O)N1CCC[C@H]1C(=O)N[C@@H](CCCNC(=N)N)C(=O)NCC(=O)N[C@@H](CC(=O)O)C(=O)N[C@@H](Cc1ccccc1)C(=O)N[C@H](CCC(=O)O)C(=O)O` [Example 4], for which the pIC50 (commonly the IC50 on a negative log10 scale, so that one unit is a factor of ten) was 4.82. With `CC[C@H](C)[C@H](NC(=O)[C@@H]1CCCN1C(=O)[C@H](CCC(=O)O)NC(=O)[C@H](Cc1c[nH]c2ccccc12)NC(=O)[C@H](CC(=O)O)NC(=O)c1ccc(CN)cc1)C(=O)N1CCC[C@H]1C(=O)N[C@@H](CCC(=O)O)C(=O)N[C@@H](CCC(=O)O)C(=O)N[C@@H](C)C(=O)N[C@@H](CC1CCCCC1)C(=O)N[C@H](CCC(=O)O)C(=O)O` [Example 6] the figure was 5.68; with `CC[C@H](C)[C@H](NC(=O)[C@@H]1CCCN1C(=O)[C@H](CCC(=O)O)NC(=O)[C@H](Cc1c[nH]c2ccccc12)NC(=O)[C@H](CC(=O)O)NC(=O)c1ccc(CNC(=N)N)cc1)C(=O)N1CCC[C@H]1C(=O)N[C@@H](CCC(=O)O)C(=O)N[C@@H](CCC(=O)O)C(=O)N[C@@H](C)C(=O)N[C@@H](CC1CCCCC1)C(=O)N[C@H](CCC(=O)O)C(=O)O` [Example 7], 5.89.

The values are drawn from patent EP0468448B1, “Analogs of hirudin having antiplatelet activity” (MERRELL PHARMACEUTICALS INC., priority 1990, dated 1992).
